Values of other authors as cited in article PMC6943670, “Investigating the Binding Mode of Reversible LSD1 Inhibitors Derived from Stilbene Derivatives by 3D-QSAR, Molecular Docking, and Molecular Dynamics Simulation” (Molecules, 2019).

Molecular target: LSD1 (Homo sapiens, UniProt O60341)
Conditions: cited from earlier work

Compound: NNCCc1ccccc1 [phenelzine]
- inhibitory effect on LSD1 (MAO inhibitors bonding covalently with FAD): no significant inhibitory effect
- selectivity (MAO inhibitors): poor selectivity
